{"source": "patent US5294603A", "about": "“Pharmaceutical compositions containing didemnins” (The Board of Trustees of The University of Illinois, priority 1992, dated 1994)", "key": {"L1210 cells": {"system": "L1210 cells", "assay": "Inhibition of L1210 cell growth (Tables II-IV)", "set-up": "IC50: unit not given beside the values", "conditions": "for % I / Net increase in cells/mL: Table III"}, "[1]": {"system": "cells of the VIV assay (not named)", "assay": "Cytotoxicity in the VIV assay (Tables VI, 9)", "conditions": "Table VI, dose 0.3 (unit not given)"}, "[2]": {"conditions": "dose 0.1 (no unit in table; ng/ml)"}, "[3]": {"conditions": "dose 0.3 (no unit in table; ng/ml)"}, "[4]": {"conditions": "dose 1 (no unit in table; ng/ml)"}, "[5]": {"conditions": "dose 3 (no unit in table; ng/ml)"}, "[6]": {"conditions": "dose 10 (no unit in table; ng/ml)"}}}
{"substance": "-Ketobutyryl-Pro Didemnin A", "values": [{"measurement": "IC50", "setting": "L1210 cells; L1210 cells, unit not given", "value": 0.4}, {"measurement": "% I", "setting": "L1210 cells; [2]", "value": -8, "unit": "%"}, {"measurement": "Net increase in cells/mL", "setting": "L1210 cells; [2]", "value": "3.9 × 10^5 cells/mL"}, {"measurement": "% I", "setting": "L1210 cells; [3]", "value": 31, "unit": "%"}, {"measurement": "Net increase in cells/mL", "setting": "L1210 cells; [3]", "value": "2.5 × 10^5 cells/mL"}, {"measurement": "% I", "setting": "L1210 cells; [4]", "value": 94, "unit": "%"}, {"measurement": "Net increase in cells/mL", "setting": "L1210 cells; [4]", "value": "2.3 × 10^4 cells/mL"}, {"measurement": "% I", "setting": "L1210 cells; [5]", "value": 100, "unit": "%"}, {"measurement": "Net increase in cells/mL", "setting": "L1210 cells; [5]", "value": 0, "unit": "cells/mL"}, {"measurement": "% I", "setting": "L1210 cells; [6]", "value": 100, "unit": "%"}, {"measurement": "Net increase in cells/mL", "setting": "L1210 cells; [6]", "value": 0, "unit": "cells/mL"}, {"measurement": "cytotoxicity compared with DDB", "setting": "L1210 cells; at 1 ng/ml", "value": "comparable to that of DDB"}, {"measurement": "cytotoxicity compared with DDB", "setting": "L1210 cells; at 3 ng/ml", "value": "retained the full cytotoxicity of DDB"}, {"measurement": "% Cytotoxicity", "setting": "[1]", "value": 87, "unit": "%"}]}
